Amino acid sequences for entries named in this document (tags omitted).
UniProt P29678, whole entry: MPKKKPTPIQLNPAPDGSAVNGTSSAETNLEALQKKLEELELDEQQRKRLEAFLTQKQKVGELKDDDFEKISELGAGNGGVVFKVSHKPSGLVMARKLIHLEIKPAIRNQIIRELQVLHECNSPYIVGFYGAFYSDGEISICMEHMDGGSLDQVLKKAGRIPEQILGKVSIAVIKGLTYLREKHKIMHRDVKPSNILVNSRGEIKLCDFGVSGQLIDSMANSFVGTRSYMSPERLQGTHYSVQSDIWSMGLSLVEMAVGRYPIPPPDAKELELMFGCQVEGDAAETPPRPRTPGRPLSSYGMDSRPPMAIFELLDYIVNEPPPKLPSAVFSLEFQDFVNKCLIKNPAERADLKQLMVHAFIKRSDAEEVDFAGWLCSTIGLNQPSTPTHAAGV

In patent publication US20070061084A1, “Method, system, and knowledge repository for identifying a secondary metabolite from a microorganism” (Ecopia BioSciences, Inc., priority 2002, published 2007):

Experiments:
[1] = target: T1, Protein Serine/Threonine Kinase MEK1 (Oryctolagus cuniculus, UniProt P29678); conditions: read-out: IC50 (historical); reference compound, historical value; cited from earlier work
[2] = target: T1, Protein Serine/Threonine Kinase MEK1; assay: MEK1 enzyme inhibition assay (Elisa quantitation of MBP-P); type: biochemical, rabbit; design: made in house; host or cells: E. coli

Question: Which IC50 [1] does the source give for `CN[C@@H]1C[C@H]2O[C@@](C)([C@@H]1OC)n1c3ccccc3c3c4c(c5c6ccccc6n2c5c31)C(=O)NC4` [Staurosporine] here?
Answer: The IC50 was 3.8 nM.

Question: What about the IC50 [2] of the same compound?
Answer: Its IC50 is 2.1 nM.

Read-outs that look alike come from different tables or passages of the source.
